Results: US10988451B2, “MCL-1 inhibitors” (Gilead Sciences, Inc., priority 2018, dated 2021)

Test system: SKBR3 cells
Test: SKBR3 Cell Viability Assay
Details: read-out: MCL-1 CV SKBR3 EC50, 72 hours, CellTiter Glo

EC50: 10 µM
SMILES: CCC(=O)N[S@]1(=O)=NC(=O)c2ccc3c(c2)N(C[C@@H]2CC[C@H]2[C@@H](OC)CCCCC1)C[C@@]1(CCCc2ccccc21)CO3
